Test results as given in patent publication US20240360165A1, “INHIBITORS OF CYCLIN DEPENDENT KINASE 7 (CDK7)” (Syros Pharmaceuticals, Inc., priority 2016, published 2024).

Sequences of proteins named here, by UniProt entry; tags and fusion partners are left off. Residues count along the entry.
UniProt P50750, whole entry: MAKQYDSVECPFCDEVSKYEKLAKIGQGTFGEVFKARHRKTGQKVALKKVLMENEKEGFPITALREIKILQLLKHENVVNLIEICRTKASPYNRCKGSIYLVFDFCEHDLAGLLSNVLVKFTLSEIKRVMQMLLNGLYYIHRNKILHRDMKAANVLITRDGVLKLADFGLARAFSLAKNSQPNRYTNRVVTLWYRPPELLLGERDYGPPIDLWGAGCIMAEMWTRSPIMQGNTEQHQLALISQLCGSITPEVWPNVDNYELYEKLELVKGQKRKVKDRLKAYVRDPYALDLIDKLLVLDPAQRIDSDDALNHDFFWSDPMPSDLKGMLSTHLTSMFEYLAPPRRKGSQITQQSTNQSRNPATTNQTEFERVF
UniProt Q9NYV4, 686-1082 limits assumed: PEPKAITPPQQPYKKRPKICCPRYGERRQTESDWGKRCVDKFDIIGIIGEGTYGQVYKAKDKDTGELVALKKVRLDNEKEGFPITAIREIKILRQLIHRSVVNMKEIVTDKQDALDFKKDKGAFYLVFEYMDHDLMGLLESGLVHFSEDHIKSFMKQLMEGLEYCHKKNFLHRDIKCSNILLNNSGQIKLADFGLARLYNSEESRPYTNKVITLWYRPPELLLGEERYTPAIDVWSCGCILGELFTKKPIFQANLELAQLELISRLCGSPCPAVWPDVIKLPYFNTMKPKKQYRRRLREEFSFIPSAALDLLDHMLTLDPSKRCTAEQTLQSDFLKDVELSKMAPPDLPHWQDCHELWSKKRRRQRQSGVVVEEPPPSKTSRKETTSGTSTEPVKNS
UniProt P50613, whole entry: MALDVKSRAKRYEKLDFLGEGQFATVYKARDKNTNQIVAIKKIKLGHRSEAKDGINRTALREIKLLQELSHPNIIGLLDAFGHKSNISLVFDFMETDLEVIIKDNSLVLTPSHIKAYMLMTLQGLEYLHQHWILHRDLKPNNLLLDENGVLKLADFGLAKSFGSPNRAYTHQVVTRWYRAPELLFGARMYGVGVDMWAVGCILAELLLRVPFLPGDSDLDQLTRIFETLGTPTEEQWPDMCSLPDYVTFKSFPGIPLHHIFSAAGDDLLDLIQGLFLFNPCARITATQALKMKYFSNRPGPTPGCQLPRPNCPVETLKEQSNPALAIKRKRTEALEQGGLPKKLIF
UniProt O60563, whole entry partner: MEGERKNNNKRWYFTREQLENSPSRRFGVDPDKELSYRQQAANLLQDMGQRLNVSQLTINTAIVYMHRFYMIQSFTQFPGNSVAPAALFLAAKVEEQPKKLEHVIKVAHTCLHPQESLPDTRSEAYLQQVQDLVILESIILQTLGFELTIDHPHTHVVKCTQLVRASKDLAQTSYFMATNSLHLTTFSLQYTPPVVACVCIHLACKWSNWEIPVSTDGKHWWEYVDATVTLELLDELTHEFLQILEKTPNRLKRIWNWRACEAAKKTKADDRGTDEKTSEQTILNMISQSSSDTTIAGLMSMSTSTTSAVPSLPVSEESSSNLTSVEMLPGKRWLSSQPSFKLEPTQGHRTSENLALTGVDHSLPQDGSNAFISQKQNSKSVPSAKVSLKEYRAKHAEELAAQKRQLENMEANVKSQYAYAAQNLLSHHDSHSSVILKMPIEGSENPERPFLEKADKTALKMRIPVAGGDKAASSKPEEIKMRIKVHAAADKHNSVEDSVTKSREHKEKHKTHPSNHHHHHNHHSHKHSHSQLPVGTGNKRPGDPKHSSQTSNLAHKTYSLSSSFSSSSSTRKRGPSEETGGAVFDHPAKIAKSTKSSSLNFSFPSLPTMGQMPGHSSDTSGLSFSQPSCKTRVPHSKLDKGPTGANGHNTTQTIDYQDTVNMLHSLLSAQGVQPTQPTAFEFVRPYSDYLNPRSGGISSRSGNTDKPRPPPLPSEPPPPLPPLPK
UniProt P51946, whole entry partner: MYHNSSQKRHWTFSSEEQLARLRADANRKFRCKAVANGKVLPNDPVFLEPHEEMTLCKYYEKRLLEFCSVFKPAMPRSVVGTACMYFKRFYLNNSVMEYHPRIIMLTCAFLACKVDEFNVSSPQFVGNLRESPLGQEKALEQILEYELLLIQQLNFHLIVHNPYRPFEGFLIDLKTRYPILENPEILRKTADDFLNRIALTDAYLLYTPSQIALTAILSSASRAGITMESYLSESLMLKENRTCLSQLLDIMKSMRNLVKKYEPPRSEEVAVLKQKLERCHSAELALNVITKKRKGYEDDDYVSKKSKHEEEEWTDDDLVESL
UniProt O75909, whole entry partner: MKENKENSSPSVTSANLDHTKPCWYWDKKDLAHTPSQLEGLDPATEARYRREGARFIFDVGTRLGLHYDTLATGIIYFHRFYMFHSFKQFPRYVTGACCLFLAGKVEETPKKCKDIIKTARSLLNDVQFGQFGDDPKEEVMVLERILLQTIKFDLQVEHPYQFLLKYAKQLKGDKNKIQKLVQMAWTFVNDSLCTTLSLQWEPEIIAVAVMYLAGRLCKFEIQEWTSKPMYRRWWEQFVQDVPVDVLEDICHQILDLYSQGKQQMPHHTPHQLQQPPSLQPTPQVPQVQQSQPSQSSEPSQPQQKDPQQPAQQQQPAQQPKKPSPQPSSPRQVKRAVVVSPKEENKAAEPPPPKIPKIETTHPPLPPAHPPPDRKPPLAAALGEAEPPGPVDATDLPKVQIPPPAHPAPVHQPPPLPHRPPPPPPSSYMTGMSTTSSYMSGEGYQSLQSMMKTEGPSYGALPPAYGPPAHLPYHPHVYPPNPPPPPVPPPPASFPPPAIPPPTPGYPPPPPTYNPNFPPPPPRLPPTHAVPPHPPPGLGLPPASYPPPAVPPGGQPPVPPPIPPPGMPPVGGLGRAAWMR
UniProt P51948, whole entry partner: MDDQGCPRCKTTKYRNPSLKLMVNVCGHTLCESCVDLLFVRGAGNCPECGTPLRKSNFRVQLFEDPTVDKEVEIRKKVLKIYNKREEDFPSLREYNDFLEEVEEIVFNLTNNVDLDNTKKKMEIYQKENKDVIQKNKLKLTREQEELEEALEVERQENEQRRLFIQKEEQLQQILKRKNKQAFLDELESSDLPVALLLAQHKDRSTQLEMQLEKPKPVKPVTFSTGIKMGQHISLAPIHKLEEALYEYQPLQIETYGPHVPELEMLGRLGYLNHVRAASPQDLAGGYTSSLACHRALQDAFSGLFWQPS

How the values were obtained:
CDK9/Cyclin T1 complex = CDK9/Cyclin T1 complex (Homo sapiens, UniProt P50750); assay: CDK9 inhibition assay (Caliper/LabChip EZ Reader kinase assay); settings: read-out: CDK9; Table 1; CDK9/Cyclin T1 8 nM, ATP 2 mM, 15 min at 27° C.
[1] = target: CDK12 (aa686-1082)/Cyclin K complex (Homo sapiens, UniProt Q9NYV4); assay: CDK12 inhibition assay (Caliper/LabChip EZ Reader kinase assay); settings: read-out: CDK12; Table 1; CDK12 (aa686-1082)/Cyclin K 50 nM, ATP 2 mM, 3 hr at 27° C.
[2] = target: CDK7/Cyclin H/MAT1 complex (Homo sapiens, UniProt P50613); assay: CDK7 inhibition assay (Caliper/LabChip EZ Reader kinase assay); settings: read-out: CDK7; Table 1; CDK7/Cyclin H/MAT1 6 nM, ATP 2 mM, 35 min at 27° C.
A673 cells = assay: Inhibition of proliferation of A673 cells (CyQUANT, 72 hour); settings: read-out: Inhibition of Proliferation of A673 Cells (calculated IC50)
CDK2/Cyclin E1 complex = CDK2/Cyclin E1 complex (Homo sapiens, UniProt P24941); assay: CDK2 inhibition assay (Caliper/LabChip EZ Reader kinase assay); settings: read-out: CDK2; Table 1; CDK2/Cyclin E1 0.5 nM, ATP 2 mM, 35 min at 27° C.

Structure (SMILES) | IC50 (CDK9/Cyclin T1 complex) | IC50 [1] | IC50 [2] | IC50 (CDK2/Cyclin E1 complex) | IC50 (A673 cells)
Oc1ncccc1-c1ccc2c(-c3nc(N[C@H]4CCCNC4)ncc3C(F)(F)F)c[nH]c2c1 [Compound 310, 3-[3-[2-[[(3S)-3-piperidyl]amino]-5-(trifluoromethyl)pyrimidin-4-yl]-1H-indol-6-yl]pyridin-2-ol] | 200 to 5000 nM | 200 to 5000 nM |  |  | 20 to 200 nM
CC(C)[C@@H]1CC[C@H](Nc2ncc(C(F)(F)F)c(-c3c[nH]c4ccccc34)n2)CN1 (single isomer, unassigned) | > 5000 nM | 200 to 5000 nM | 20 to 200 nM | 200 to 5000 nM | 
Cc1c(-c2ccc3c(-c4nc(N[C@H]5CCCNC5)ncc4C(F)(F)F)c[nH]c3c2)c[nH]c(=O)c1C#N [Compound 311, 4-methyl-2-oxo-5-[3-[2-[[(3S)-3-piperidyl]amino]-5-(trifluoromethyl)pyrimidin-4-yl]-1H-indol-6-yl]-1H-pyridine-3-carbonitrile] | 200 to 5000 nM | 200 to 5000 nM | 20 to 200 nM |  | 200 to 5000 nM
FC(F)(F)c1cnc(N[C@H]2CCCNC2)nc1-c1c[nH]c2cnc(Cl)cc12 | 200 to 5000 nM | 200 to 5000 nM |  |  | 
Fc1cc2[nH]nc(-c3nc(N[C@H]4CCCNC4)ncc3C(F)(F)F)c2cc1F | 200 to 5000 nM | 200 to 5000 nM |  |  | 
CC1(Nc2ncc(Cl)c(-c3c[nH]c4ccccc34)n2)CCCNC1 (centres unmarked) |  |  | 200 to 5000 nM |  | 
FC(F)(F)Cc1cnc(N[C@H]2CCCNC2)nc1-c1c[nH]c2ccccc12 | > 5000 nM | 200 to 5000 nM | 200 to 5000 nM | > 5000 nM | 20 to 200 nM
Clc1cnc(N[C@H]2CCCNC2)nc1-c1n[nH]c2ccccc12 | 200 to 5000 nM | 200 to 5000 nM | < 20 nM | 200 to 5000 nM | 20 to 200 nM

The next lines start with results.

IC50 (CDK9/Cyclin T1 complex) | IC50 [1] | IC50 [2] | IC50 (CDK2/Cyclin E1 complex) | Structure (SMILES) | IC50 (A673 cells)
200 to 5000 nM | 20 to 200 nM |  |  | FC(F)(F)c1cnc(N[C@H]2CCCNC2)nc1-c1c[nH]c2c(Cl)cccc12 | 
200 to 5000 nM |  | 20 to 200 nM |  | CCOP(=O)(OCC)c1ccc2[nH]cc(-c3nc(N[C@H]4CCCNC4)ncc3C(F)(F)F)c2c1 | 
200 to 5000 nM | 200 to 5000 nM | 20 to 200 nM |  | CCc1cnc(N[C@H]2CCCNC2)nc1-c1n[nH]c2ccccc12 | 
200 to 5000 nM | 200 to 5000 nM | 20 to 200 nM |  | C[C@@H]1CNC[C@@H](Nc2ncc(Cl)c(-c3c[nH]c4ccccc34)n2)C1 | 
200 to 5000 nM | 200 to 5000 nM | 20 to 200 nM |  | Fc1cccc2c(-c3nc(N[C@H]4CCCNC4)ncc3Cl)n[nH]c12 | 
200 to 5000 nM | 200 to 5000 nM | 200 to 5000 nM |  | Clc1cnc(N[C@@H]2CCCNC2)nc1-c1c[nH]c2ccccc12 | 
200 to 5000 nM | 200 to 5000 nM |  |  | CNC(=O)[C@H]1CNC[C@H](Nc2ncc(C(F)(F)F)c(-c3c[nH]c4ccccc34)n2)C1 (single isomer, unassigned) | 
